Reference: patent publication US20090098588A1

Protein sequences, listed by entry. Tags and fused reporters are not part of them. Lines headed by an entry give the natural chain unless they say otherwise; changes in a name come on top.
UniProt P31391: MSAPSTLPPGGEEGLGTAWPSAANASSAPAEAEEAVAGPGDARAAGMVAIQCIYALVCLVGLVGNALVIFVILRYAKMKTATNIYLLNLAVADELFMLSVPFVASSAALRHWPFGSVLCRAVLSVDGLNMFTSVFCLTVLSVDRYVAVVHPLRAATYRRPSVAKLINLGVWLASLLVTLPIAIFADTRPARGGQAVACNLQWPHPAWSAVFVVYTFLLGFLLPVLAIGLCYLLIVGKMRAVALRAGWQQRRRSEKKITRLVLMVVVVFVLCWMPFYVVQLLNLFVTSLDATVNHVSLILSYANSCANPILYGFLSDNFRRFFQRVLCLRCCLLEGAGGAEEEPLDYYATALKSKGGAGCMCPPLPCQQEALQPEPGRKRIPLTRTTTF
UniProt P30872: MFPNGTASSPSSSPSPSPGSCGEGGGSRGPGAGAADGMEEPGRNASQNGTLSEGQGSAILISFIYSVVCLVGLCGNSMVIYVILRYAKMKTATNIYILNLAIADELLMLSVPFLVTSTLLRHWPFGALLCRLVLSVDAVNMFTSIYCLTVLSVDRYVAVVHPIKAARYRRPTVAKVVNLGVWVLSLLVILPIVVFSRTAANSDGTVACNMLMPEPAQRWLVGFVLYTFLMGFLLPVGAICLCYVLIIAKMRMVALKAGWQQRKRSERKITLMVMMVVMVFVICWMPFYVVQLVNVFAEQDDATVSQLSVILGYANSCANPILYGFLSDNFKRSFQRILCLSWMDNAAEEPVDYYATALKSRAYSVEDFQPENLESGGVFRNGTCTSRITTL
UniProt P61278: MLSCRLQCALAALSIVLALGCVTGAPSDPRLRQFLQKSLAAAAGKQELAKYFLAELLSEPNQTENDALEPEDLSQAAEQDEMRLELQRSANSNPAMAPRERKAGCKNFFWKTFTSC

What was measured:
Assay in all cases: cell-based or functional assay
[1] = molecular target: SSTR4 fused to PK2 (UniProt P31391)
[2] = molecular target: SSTR1 fused to PK1 (UniProt P30872)
[3] = molecular target: SSTR1 fused to PK2 (UniProt P30872)
[4] = molecular target: SSTR4 fused to PK1 (UniProt P31391)

Substance | Fold induct. (arrestin recruitment, beta-galactosidase EFC, saturating ligand) [1] [fold] | Fold induct. (arrestin recruitment, beta-galactosidase EFC, saturating ligand) [2] [fold] | Fold induct. (arrestin recruitment, beta-galactosidase EFC, saturating ligand) [3] [fold] | Fold induct. (arrestin recruitment, beta-galactosidase EFC, saturating ligand) [4] [fold]
Somatostatin-14 (from UniProt P61278 103-116) (peptide) | 1.6 | 1 | 1.5 | 1.5
[TYR1] Somatostatin 14 (from UniProt P61278 103-116) (peptide) | – | – | 2.2 | –
